Measurements from ChEMBL document CHEMBL1121735, “Synthesis and adrenoceptor affinity of some highly polar beta-substituted catecholamines” (J Med Chem, 1981).

Molecular target: Adrenergic receptor alpha
Test: Binding affinity against Alpha adrenergic receptor using [3H]dihydroergocryptine radioligand in rat brain homogenate
Assay type: tissue-based

- IC50: 1.7e-8 M l-1
Compound: CNC[C@H](O)c1ccc(O)c(O)c1 [EPINEPHRINE]
